This is an account of results in patent US20190183812A1, “Compounds For The Treatment Of Neuromuscular Disorders” (NMD PHARMA A/S, priority 2017, published 2019).

The assay deals with T1, CIC-1 ion channels (Rattus norvegicus, UniProt P35524).
T1 construct: from tissue; host or cells: soleus muscle of adult (12-14 week old) Wistar rats
T1 sequence (P35524 1-994): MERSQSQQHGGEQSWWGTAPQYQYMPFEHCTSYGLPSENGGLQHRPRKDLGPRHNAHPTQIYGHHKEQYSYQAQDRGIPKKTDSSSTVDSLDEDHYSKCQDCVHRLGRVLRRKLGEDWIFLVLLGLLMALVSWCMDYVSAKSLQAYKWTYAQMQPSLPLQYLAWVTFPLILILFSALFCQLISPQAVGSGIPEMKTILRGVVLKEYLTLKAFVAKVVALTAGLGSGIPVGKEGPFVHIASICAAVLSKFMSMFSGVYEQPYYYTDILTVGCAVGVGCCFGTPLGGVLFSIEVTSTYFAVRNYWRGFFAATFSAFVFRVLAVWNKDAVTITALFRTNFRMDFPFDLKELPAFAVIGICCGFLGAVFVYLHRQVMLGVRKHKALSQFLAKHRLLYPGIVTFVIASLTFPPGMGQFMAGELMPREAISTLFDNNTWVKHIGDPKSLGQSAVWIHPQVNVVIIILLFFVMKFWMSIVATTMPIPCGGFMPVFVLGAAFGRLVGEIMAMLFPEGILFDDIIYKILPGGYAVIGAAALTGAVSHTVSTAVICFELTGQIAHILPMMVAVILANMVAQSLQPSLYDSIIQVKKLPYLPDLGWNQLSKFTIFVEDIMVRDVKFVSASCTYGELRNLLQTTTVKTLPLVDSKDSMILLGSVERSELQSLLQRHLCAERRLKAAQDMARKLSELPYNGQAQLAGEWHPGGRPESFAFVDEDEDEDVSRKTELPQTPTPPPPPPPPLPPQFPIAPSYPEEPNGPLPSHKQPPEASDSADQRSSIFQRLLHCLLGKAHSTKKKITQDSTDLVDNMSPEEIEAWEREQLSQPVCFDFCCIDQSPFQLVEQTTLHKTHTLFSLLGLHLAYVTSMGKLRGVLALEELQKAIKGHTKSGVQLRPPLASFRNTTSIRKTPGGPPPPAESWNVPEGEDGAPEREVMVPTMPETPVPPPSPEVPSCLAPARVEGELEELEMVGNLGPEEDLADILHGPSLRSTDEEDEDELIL
Briefly: Resting membrane conductance (Gm), three-electrode technique, rat muscle: Kd for CIC-1 inhibition. Type of assay: cell-based. Conditions: concentration that reduced Gm by 50%.

As a reminder, the Kd is the constant that tells how readily two partners part at equilibrium.

`C[C@H](Oc1ccc(Br)cc1)C(=O)O` [Compound C8, (2S)-2-(4-bromophenoxy)propanoic acid] came in with a Kd of 9 µM.
